Reference: publication PMC4838859, “Genetically encoded photocrosslinkers locate the high-affinity binding site of antidepressant drugs in the human serotonin transporter” (Nature Communications, 2016)

Amino acid sequences for entries named in this document (tags omitted).
UniProt P31645, whole entry: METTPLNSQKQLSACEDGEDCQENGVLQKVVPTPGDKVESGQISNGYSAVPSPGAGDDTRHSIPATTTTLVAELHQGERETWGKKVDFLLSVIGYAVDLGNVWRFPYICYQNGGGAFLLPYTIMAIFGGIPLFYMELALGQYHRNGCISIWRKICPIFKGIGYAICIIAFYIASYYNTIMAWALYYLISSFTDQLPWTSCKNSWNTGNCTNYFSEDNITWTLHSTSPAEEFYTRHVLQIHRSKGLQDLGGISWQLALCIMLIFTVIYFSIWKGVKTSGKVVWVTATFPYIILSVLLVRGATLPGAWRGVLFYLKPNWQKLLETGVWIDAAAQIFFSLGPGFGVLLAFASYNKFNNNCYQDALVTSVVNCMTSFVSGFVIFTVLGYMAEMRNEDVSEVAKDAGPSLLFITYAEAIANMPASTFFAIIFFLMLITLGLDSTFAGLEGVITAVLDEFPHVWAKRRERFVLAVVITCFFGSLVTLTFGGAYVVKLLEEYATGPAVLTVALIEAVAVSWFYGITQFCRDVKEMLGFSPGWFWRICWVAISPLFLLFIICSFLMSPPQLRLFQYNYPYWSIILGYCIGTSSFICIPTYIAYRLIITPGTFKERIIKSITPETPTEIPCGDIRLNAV

How the values were obtained:
hSERT Y95azF = hSERT Y95azF (Homo sapiens, UniProt P31645)
WT hSERT = WT hSERT (Homo sapiens, UniProt P31645); test: Ultraviolet-induced photocrosslinking of [3H]labelled drug in HEK293T cells; conditions: 100 nM [3H]drug, 2 h 4 °C, UV 15 min

## CN(C)CCCN1c2ccccc2CCc2ccccc21 [imipramine]
hSERT Y95azF; 100 nM [3H]drug, 2 h 4 °C, UV 15 min, 50–100 kDa segment
  ultraviolet-induced crosslinking (radioactivity signal vs non-UV control): significantly higher
hSERT Y95azF; 100 μM unlabelled inhibitor added before ultraviolet exposure
  displacement of crosslinking radioactivity signal by unlabelled inhibitor: full displacement
WT hSERT
  ultraviolet-induced crosslinking (radioactivity signal): no radioactivity signal was observed
